The text below walks through data of patent publication US20180193330A1, “ALKYLATED TETRAHYDROISOQUINOLINES FOR BINDING TO CENTRAL NERVOUS SYSTEM RECEPTORS” (Florida A&M University, priority 2017, published 2018).

By UniProt entry, the sequences of proteins in these tests, tags left out. Residues count along the entry.
UniProt P28223, whole entry: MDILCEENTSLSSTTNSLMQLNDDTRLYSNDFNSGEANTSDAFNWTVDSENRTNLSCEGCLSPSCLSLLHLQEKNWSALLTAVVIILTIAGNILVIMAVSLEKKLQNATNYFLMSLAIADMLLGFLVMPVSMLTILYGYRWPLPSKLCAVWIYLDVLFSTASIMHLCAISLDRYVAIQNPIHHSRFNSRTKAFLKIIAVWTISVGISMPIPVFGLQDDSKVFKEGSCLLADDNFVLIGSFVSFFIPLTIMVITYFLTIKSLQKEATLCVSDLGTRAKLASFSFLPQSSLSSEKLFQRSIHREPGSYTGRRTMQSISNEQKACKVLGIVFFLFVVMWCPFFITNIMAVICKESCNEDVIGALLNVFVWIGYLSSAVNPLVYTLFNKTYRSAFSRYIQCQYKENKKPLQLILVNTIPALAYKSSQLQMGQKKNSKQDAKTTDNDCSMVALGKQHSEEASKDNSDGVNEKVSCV
UniProt P34969, whole entry: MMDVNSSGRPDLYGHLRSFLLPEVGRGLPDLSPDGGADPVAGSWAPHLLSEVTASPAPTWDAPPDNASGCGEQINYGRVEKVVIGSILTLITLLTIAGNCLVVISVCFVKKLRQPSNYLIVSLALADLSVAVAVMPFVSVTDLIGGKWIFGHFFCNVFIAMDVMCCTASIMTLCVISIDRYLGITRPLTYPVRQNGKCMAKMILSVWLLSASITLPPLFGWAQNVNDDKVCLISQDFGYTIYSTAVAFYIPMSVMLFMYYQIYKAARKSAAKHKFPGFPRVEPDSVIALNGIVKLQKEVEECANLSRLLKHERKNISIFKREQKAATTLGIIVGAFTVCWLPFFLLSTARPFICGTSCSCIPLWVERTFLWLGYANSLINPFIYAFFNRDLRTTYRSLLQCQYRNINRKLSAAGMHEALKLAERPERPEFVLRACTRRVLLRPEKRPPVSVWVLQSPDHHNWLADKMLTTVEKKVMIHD
UniProt P35462, whole entry: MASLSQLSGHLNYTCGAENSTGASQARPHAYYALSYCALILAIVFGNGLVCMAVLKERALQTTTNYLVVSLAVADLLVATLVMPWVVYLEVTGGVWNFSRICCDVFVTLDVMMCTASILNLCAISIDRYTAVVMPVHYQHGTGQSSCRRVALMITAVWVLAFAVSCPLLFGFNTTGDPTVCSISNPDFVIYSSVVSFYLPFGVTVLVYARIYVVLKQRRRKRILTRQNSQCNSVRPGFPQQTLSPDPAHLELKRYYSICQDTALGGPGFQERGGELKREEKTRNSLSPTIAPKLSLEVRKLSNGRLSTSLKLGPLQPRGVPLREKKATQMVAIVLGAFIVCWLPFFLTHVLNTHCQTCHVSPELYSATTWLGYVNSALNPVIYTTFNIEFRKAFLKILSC
UniProt P28335, 33-458 limits assumed: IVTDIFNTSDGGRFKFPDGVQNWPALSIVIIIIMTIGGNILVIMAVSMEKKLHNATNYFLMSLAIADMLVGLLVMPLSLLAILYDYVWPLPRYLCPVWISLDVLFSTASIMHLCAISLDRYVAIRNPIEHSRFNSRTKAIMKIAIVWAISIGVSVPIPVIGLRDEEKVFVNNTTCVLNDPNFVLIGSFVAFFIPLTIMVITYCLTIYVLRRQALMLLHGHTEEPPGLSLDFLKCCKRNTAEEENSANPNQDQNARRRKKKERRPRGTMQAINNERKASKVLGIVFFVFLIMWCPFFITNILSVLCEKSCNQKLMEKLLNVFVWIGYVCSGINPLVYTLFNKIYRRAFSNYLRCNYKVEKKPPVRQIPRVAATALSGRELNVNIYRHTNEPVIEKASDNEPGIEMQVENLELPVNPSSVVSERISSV
UniProt P21917, whole entry: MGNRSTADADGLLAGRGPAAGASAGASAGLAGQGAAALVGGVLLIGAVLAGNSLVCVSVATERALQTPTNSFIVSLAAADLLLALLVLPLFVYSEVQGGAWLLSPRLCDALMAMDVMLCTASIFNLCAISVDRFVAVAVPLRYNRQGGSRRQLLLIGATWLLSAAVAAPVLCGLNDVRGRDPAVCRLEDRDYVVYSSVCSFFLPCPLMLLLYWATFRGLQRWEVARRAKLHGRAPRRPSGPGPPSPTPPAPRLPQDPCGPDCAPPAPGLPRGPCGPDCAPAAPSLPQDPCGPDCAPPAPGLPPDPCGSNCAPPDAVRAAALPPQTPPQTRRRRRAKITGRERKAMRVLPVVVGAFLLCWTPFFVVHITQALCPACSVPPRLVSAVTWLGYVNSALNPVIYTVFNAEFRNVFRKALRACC
UniProt P31645, whole entry: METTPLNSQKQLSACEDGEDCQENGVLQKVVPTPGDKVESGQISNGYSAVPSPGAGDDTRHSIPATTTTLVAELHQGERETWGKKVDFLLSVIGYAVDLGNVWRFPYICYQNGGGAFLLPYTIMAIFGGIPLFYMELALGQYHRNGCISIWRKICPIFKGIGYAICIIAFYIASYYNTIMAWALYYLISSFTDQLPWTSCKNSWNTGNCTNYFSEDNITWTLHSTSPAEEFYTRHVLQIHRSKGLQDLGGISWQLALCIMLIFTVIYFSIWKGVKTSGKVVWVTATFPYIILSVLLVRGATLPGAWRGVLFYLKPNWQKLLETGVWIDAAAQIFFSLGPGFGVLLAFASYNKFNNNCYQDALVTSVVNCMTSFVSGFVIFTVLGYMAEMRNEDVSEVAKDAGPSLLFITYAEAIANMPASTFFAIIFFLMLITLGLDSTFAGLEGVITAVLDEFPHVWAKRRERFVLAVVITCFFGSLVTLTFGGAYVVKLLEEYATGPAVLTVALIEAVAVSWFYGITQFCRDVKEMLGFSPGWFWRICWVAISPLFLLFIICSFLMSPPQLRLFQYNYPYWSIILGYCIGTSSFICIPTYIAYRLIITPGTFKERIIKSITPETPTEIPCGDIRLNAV
UniProt P14416, whole entry: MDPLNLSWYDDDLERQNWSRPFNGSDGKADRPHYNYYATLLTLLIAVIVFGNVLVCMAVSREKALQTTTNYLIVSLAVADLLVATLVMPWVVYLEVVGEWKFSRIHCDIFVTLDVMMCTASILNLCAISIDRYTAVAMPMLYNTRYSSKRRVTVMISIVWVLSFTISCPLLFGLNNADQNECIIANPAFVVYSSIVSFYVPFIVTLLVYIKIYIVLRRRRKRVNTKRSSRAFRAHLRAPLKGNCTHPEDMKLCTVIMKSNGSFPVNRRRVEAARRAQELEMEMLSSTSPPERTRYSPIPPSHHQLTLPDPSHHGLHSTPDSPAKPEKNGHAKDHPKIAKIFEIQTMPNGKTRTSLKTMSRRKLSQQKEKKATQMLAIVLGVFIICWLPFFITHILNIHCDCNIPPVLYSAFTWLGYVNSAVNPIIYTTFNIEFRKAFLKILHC
UniProt P08908, whole entry: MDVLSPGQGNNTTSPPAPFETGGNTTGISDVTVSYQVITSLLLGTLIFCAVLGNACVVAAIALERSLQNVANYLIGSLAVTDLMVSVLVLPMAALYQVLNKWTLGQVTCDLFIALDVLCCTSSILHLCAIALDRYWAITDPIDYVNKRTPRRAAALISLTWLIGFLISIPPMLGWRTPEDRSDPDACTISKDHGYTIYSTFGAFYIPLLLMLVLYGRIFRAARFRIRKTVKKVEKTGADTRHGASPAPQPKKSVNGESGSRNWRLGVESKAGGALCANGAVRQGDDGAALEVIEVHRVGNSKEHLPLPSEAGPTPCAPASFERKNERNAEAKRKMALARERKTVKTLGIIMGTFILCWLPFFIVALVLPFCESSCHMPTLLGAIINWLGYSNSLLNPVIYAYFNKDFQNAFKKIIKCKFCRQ

For one assay, the target named is 5-HT2A receptor (Homo sapiens, UniProt P28223). Kind of assay: Receptor binding affinity at 5-HT2A (NIMH-PDSP radioligand binding). The conditions noted are these: Table 6, FIG. 23 compounds.
A further assay has as its target 5-HT7 receptor (Homo sapiens, UniProt P34969). Description: Receptor binding affinity at 5-HT7 (NIMH-PDSP radioligand binding). The following applies: read-out: Ki 5-HT7; Table 6, FIG. 23 compounds.
The next assay has as its target D3 receptor (Homo sapiens, UniProt P35462). Kind of assay: Receptor binding affinity at dopamine D3 (NIMH-PDSP radioligand binding). The following applies: Table 6, FIG. 23 compounds.
The target of another assay is 5-HT2C receptor (Homo sapiens, UniProt P28335). Kind of assay: Receptor binding affinity at 5-HT2C (NIMH-PDSP radioligand binding). The following applies: Table 6, FIG. 23 compounds.
Another assay has as its target D4 receptor (Homo sapiens, UniProt P21917). Kind of assay: Receptor binding affinity at dopamine D4 (NIMH-PDSP radioligand binding). The following applies: Table 6, FIG. 23 compounds.
In another assay the target is SERT (Homo sapiens, UniProt P31645). Description: Binding affinity at SERT. The following applies: Table 6, FIG. 23 compounds.
The target in the next assay is D2 receptor (Homo sapiens, UniProt P14416). Kind of assay: Receptor binding affinity at dopamine D2 (NIMH-PDSP radioligand binding). The following applies: Table 6, FIG. 23 compounds.
In a further assay the target is 5-HT1A receptor (Homo sapiens, UniProt P08908). Kind of assay: Receptor binding affinity at 5-HT1A (NIMH-PDSP radioligand binding). The conditions noted are these: Table 6, FIG. 23 compounds.

Broadly, the Ki is a measure of affinity in units of concentration, obtained from inhibition or displacement. With `CC1(CCN2CCc3ccccc3C2)Cc2cc(Cl)ccc2C1=O` (single isomer, unassigned) [9a (−)], at 5-HT2A receptor, the “pKi ± SEM 5-HT2A” value is on record as “(6.14 ± 0.06)”. In addition, the Ki on 5-HT7 receptor worked out at 66.5 nM. Moreover, the “Ki D3” value at D3 receptor is listed as “MTA (MTA = Missed 50% of threshold inhibition)”. Also, the “pKi ± SEM 5-HT2C” value at 5-HT2C receptor is “(5.5 ± 0.08)”. Moreover, the “pKi ± SEM D4” value on D4 receptor is on record as “(6.34 ± 0.07)”. For the same molecule, the “Ki SERT” value at SERT is “MTA (MTA = Missed 50% of threshold inhibition)”. In addition, the “Ki D2” value on D2 receptor was “MTA (MTA = Missed 50% of threshold inhibition)”.

For `CC1(CCN2CCc3ccccc3C2)Cc2cc(Cl)ccc2C1=O` (single isomer, unassigned) [9b (+)], on 5-HT1A receptor, the “pKi ± SEM 5-HT1A” value was “(6.43 ± 0.06)”. On D3 receptor, the “pKi ± SEM D3” value is “(6 ± 0.05)”. Further, the “Ki D4” value at D4 receptor is “MTA (MTA = Missed 50% of threshold inhibition)”. In addition, the “Ki D2” value at D2 receptor is “MTA (MTA = Missed 50% of threshold inhibition)”.
